Data on two compounds can be found in PMC8976073 (Nature Communications, 2022).

Test [1] deals with T1, FPR2 (Homo sapiens, UniProt P25090).
T1 sequence (P25090 1-351): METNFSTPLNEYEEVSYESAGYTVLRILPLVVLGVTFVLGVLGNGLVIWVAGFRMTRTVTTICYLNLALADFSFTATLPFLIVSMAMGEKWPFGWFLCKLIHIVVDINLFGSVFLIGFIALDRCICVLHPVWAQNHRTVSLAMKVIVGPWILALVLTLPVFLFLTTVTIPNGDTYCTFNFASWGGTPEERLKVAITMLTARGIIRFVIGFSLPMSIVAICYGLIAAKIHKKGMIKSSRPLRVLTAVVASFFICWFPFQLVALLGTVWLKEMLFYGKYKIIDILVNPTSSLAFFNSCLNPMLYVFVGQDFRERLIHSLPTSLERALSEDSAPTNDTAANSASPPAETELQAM
Description: Competition binding: inhibition of WK(FITC)YMVm binding to FPR2 (wild type and mutants), HEK293F cells. Details: expressed in transfected cells; host or cells: HEK293F cells, pTT5 vector, co-transfected with GαΔ6qi4myr (1:2 w/w). The following applies: FPR2 WT, mean ± SEM. Here is the method:
(§1) The genes of wild-type FPR1 and FPR2 and mutants with a Flag tag at the N termini were cloned into pTT5 vector (Invitrogen) and expressed in HEK293F cells (Invitrogen). Cells were harvested 48 h post transfection with 1 μg ml^−1 plasmid. Cell-surface expression of the receptors was measured by mixing 10 μl cells with 15 μl of TBS buffer supplemented with 4% BSA, 20% (v/v) viability-staining solution 7-AAD (Invitrogen, Cat#00-6993-50), and 0.1% (v/v) anti-FLAG M2-FITC antibody (Sigma, Cat#F4049) at 4 °C for 20 min. After incubation, 175 μl of TBS buffer was added and the fluorescent signal was measured using a flow-cytometry reader (Guava easyCyte HT, Millipore). Then, the cells were washed and resuspended to a final concentration of 1 × 10^6 cells per ml in Hanks’ Balanced Salt Solution (HBSS) buffer supplemented with 0.5% bovine serum albumin (BSA) and 20 mM HEPES, pH 7.4.
(§2) The mean fluorescent intensity of each well was then read by the FCM reader. Total binding and nonspecific binding were measured in the absence and presence of the unlabeled ligand (200 μM WKYMVm), respectively. […] Mean fluorescent-intensity values were measured by flow cytometry. Data were analyzed using Prism 8.0 (GraphPad software).

The target of test [2] is T2, FPR2 (Homo sapiens, UniProt P25090, S84R).
T2 construct: expressed in transfected cells; host or cells: HEK293F cells, pTT5 vector
T2 sequence (P25090 1-351 S84R): T1 sequence (P25090 1-351) with S84R
The description is as above. The following applies: FPR2 S84R, mean ± SEM. The procedure:
as §1, §2

Residue numbers refer to the chain shown, from its start.

One may read the Ki as the dissociation constant of the complex between target and ligand, obtained from inhibition or displacement. A low value points to higher affinity. Turning to `CC[C@H](C)[C@H](NC(=O)[C@H](CCC(=O)O)NC(=O)[C@H](CO)NC(=O)[C@@H](NC(=O)[C@H](CC(C)C)NC(=O)[C@H](CC(C)C)NC(=O)[C@H](CC(C)C)NC(=O)[C@H](CC(C)C)NC(=O)[C@H](CS)NC(=O)[C@H](CO)NC(=O)[C@H](Cc1ccccc1)NC(=O)CNC(=O)[C@H](CCCNC(=N)N)NC(=O)[C@@H]1CCCN1C(=O)[C@H](C)NC(=O)[C@H](C)NC=O)[C@@H](C)O)C(=O)N[C@@H](CC(=O)O)C(=O)N[C@@H](CC(C)C)C(=O)N1CCC[C@H]1C(=O)N[C@H](C(=O)N[C@@H](CCCCN)C(=O)N[C@@H](CCCNC(=N)N)C(=O)N[C@@H](CCCNC(=N)N)C(=O)N[C@@H](C)C(=O)O)C(C)C` [M1A], the affinity on FPR2 [1], expressed as Ki, was 20 µM. In other words, the double-digit micromolar range. As for `CC[C@H](C)[C@H](NC(=O)[C@H](CCC(=O)O)NC(=O)[C@H](CO)NC(=O)[C@@H](NC(=O)[C@H](CC(C)C)NC(=O)[C@H](CC(C)C)NC(=O)[C@H](CC(C)C)NC(=O)[C@H](CC(C)C)NC(=O)[C@H](CS)NC(=O)[C@H](CO)NC(=O)[C@H](Cc1ccccc1)NC(=O)CNC(=O)[C@H](CCCNC(=N)N)NC(=O)[C@@H]1CCCN1C(=O)[C@H](C)NC(=O)[C@H](CCSC)NC=O)[C@@H](C)O)C(=O)N[C@@H](CC(=O)O)C(=O)N[C@@H](CC(C)C)C(=O)N1CCC[C@H]1C(=O)N[C@H](C(=O)N[C@@H](CCCCN)C(=O)N[C@@H](CCCNC(=N)N)C(=O)N[C@@H](CCCNC(=N)N)C(=O)N[C@@H](C)C(=O)O)C(C)C` [fHN, N-formyl humanin], the inhibition constant Ki at FPR2 [1] is 0.1 µM; on FPR2 [2], 4.9 µM.
